Consider four compounds from the kinase profiling compilation of Christmann-Franck et al. (2016).

Amino acid sequences for entries named in this document (tags omitted).
SGK1 (human), O00141, UniProt O00141, whole entry S422D, looked up: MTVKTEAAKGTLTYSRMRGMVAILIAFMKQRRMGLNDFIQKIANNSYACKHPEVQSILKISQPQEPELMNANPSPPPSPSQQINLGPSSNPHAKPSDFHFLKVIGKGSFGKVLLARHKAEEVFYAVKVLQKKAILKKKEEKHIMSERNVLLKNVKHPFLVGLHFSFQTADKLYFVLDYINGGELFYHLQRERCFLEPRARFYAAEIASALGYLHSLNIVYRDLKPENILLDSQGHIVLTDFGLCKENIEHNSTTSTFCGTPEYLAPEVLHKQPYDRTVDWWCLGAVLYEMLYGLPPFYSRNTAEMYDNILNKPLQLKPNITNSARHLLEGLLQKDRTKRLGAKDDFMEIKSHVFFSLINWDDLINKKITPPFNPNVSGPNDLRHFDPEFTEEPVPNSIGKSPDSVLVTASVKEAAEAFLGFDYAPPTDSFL

Molecules are shown by their SMILES.

This experiment deals with SGK1 (human), O00141 [S422D]. Put plainly: radiometric filter-binding kinase assay, Kinase HotSpot. The following applies: compound 0.5 µM; ATP 10 µM.
As to `COc1cc(OC)c(/C=C2\C(=O)Nc3ccccc32)c(OC)c1`, the residual activity (usually the activity still measured, relative to the control) is 86.7%. Then `O=C1c2ccccc2-[n+]2ccc3c([nH]c4ccccc43)c21`, with 88.7%; and `O=C1Nc2ccc3ncsc3c2/C1=C/c1c[nH]cn1`, with 24.7%; and `CO[C@H]1[C@@H](OC)C[C@H](C)[C@@H](OC)C2=CC(=O)C=C(NC(=O)/C(C)=C\C=C/[C@H](OC)[C@@H](OC(N)=O)/C(C)=C\[C@@H]1C)C2=O`, with 91.6%.
